Laboratory results reported in PubChem BioAssay AID504775 (Broad Institute, 2011).
The list shows a part of the results, in another mix than the full data. Active and inactive are the calls of the source.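 Rule for the calls: active = mean replicate activation of at least 60% and every replicate at or above 60%; inconclusive = mean or all-replicate condition met, but not both; inactive = mean below 60% and not all replicates reaching 60%.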

Test: activators of SR-BI mediated DiI-HDL uptake, primary screen, ldlA[mSR-BI] CHO cells, DiI fluorescence (AID 504775);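 note: 0% = median plate neutral-control signal and 100% = twice that signal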
Settings: 3 h, at 12.5 µM, hits give high values, 100 = double the neutral-control signal
Procedure, shortened: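 Test system: SR-BI-overexpressing, LDLR-lacking CHO cells. Measured by: DiI fluorescence, bottom read. Medium: Ham's F12 with 0.5% BSA, HEPES 25 mM, pH 7.4. Timing: 3 h uptake period with compound, 37 °C.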

With COc1cc(C(=O)NCC2(N3CCOCC3)CCCCC2)cc(OC)c1C as the molecule, how does the activation read?
The activation was inactive: -32.2%.

Which activation does the source give for O=C(NCC1(N2CCOCC2)CCCCC1)c1cc(Br)ccc1Cl here?
The activation was inactive: -6.52%.

With COc1ccc(C(=O)NCC2(N3CCOCC3)CCCCC2)cc1OC as the molecule, how does the activation read?
The activation was inactive: 16.9%.

With CCOC(=O)N1CCC(Nc2ccc(C)cc2)CC1 as the molecule, how does the activation read?
The activation was inactive: 10.4%.

For N/C(=N\O)c1c(N)no[n+]1[O-], which activation is on record?
The activation was inactive: 9.99%.

Which activation does the source give for O=C(OC1CN2CCC1CC2)C1c2ccccc2C=Cc2ccccc21 (stereo not given) here?
The activation was inactive: 18.3%.

Which activation does the source give for N#Cc1ccc(C(=O)NCC2(N3CCCCC3)CCCCC2)cc1 here?
The activation was inactive: 11.9%.

Which activation does the source give for CC(C)(C)OC(=O)N1CCC(N(C(=O)c2ccccc2)c2ccc(Cl)cc2)CC1 here?
The activation was inactive: -2.77%.

For CN(C)C1(CNC(=O)c2cccc(C#N)c2)CCCCC1, which activation is on record?
Its activation is inactive: 9.98%.

Which activation does the source give for Cc1cc(N(CCCl)CCCl)ccc1C=O here?
Its activation is inactive: -28.3%.

With CCCN1CCC(Nc2cc(OC)cc(OC)c2)CC1 as the molecule, how does the activation read?
The activation was inactive: 14.7%.

Which activation does the source give for c1ccc(CN2CCC(Nc3ccccc3)CC2)cc1 here?
The activation was inactive: -23.8%.

For CC(=O)N(c1ccccc1)C1CCNCC1, which activation is on record?
The activation was inactive: 14.8%.

With Fc1ccccc1NC1CCN(Cc2ccccc2)CC1 as the molecule, how does the activation read?
Its activation is inactive: 3.95%.

For Cc1ccc(C(=O)NCC2(N3CCCCC3)CCCCC2)o1, which activation is on record?
The activation was inactive: 19.5%.

For Cc1ccc(NC2(C#N)CCN(Cc3ccccc3)CC2)cc1, which activation is on record?
Its activation is inactive: 3.93%.

Which activation does the source give for CCN1CCC(Nc2cccc(F)c2)CC1 here?
Its activation is inactive: -8.36%.

For Cc1ccccc1NC1(C#N)CCN(Cc2ccccc2)CC1, which activation is on record?
Its activation is inactive: 19.1%.

With CN(C)c1ccc(C(=O)NCC2(N3CCCCC3)CCCCC2)cc1 as the molecule, how does the activation read?
The activation was inactive: 2.96%.

With Cn1c(=O)[nH]cc(N(CCCl)CCCl)c1=O as the molecule, how does the activation read?
Its activation is inactive: 6.11%.

For O=C(NCC1(N2CCCCC2)CCCCC1)c1ccco1, which activation is on record?
Its activation is inactive: 36.9%.

With CN1CCC(Nc2ccc(F)c(Cl)c2)CC1 as the molecule, how does the activation read?
Its activation is inactive: 27.9%.

With CCOc1ncccc1C(=O)NCC1(N2CCOCC2)CCCCC1 as the molecule, how does the activation read?
The activation was inactive: 0.98%.

For O=C(O)C1(Nc2ccccc2)CCN(Cc2ccccc2)CC1, which activation is on record?
Its activation is inactive: 20.1%.

Which activation does the source give for CC(C)(C)OC(=O)N1CCC(Nc2ccccc2)CC1 here?
Its activation is inactive: -1.28%.

With CCCOc1ccc(C(=O)NCC2(N(C)C)CCCCC2)cc1 as the molecule, how does the activation read?
Its activation is inactive: -8.44%.

Which activation does the source give for COc1cc(OC)cc(C(=O)NCC2(N3CCOCC3)CCCCC2)c1 here?
The activation was inactive: -6.24%.

Which activation does the source give for COc1cccc(C(=O)N(c2cc(C)cc(C)c2)C2CCN(C(=O)OC(C)(C)C)CC2)c1 here?
Its activation is inactive: -3.24%.

For CN1CCC(Nc2ccc(Cl)cc2)CC1, which activation is on record?
Its activation is inactive: 11.6%.

With COc1ccc(C(=O)NCC2(N3CCCCC3)CCCCC2)c(OC)c1OC as the molecule, how does the activation read?
The activation was inactive: -0.242%.

For COc1ccc(C(=O)NCC2(N3CCCCC3)CCCCC2)cc1, which activation is on record?
Its activation is inactive: 7.64%.

Which activation does the source give for O=C(NCC1(N2CCCCC2)CCCCC1)c1cccs1 here?
Its activation is inactive: 6.53%.

For O=C(NCC1(N2CCCCC2)CCCCC1)c1ccc(=O)[nH]c1, which activation is on record?
The activation was inactive: 6.22%.

For Cc1cccc(NC2(C#N)CCN(Cc3ccccc3)CC2)c1, which activation is on record?
The activation was inactive: 12.1%.

With CSc1ccccc1C(=O)NCC1(N2CCCCC2)CCCCC1 as the molecule, how does the activation read?
The activation was inactive: 19.6%.

Which activation does the source give for Cc1cc(C)cc(N(C(=O)c2ccccc2)C2CCN(C(=O)OC(C)(C)C)CC2)c1 here?
The activation was inactive: 15.4%.

With O=C(NCC1(N2CCCCC2)CCCCC1)c1ccc(Cl)nc1 as the molecule, how does the activation read?
Its activation is inactive: 37.6%.

Which activation does the source give for O=C(NCC1(N2CCOCC2)CCCCC1)c1cc2ccccc2o1 here?
Its activation is inactive: -4.25%.

Which activation does the source give for COc1ccc(Cl)cc1C(=O)NCC1(N2CCOCC2)CCCCC1 here?
The activation was inactive: 4.26%.

With O=C(NCC1(N2CCCCC2)CCCCC1)c1ccc(Cl)s1 as the molecule, how does the activation read?
The activation was inactive: 2.36%.

With N#CC1(Nc2ccccc2)CCN(Cc2ccccc2)CC1 as the molecule, how does the activation read?
Its activation is inactive: 17.3%.

With O=C(OC1CN2CCC1CC2)C1c2ccccc2Oc2ccccc21 (stereo not given) as the molecule, how does the activation read?
Its activation is inactive: -10.7%.

For CCOC(=O)N1CCC(Nc2ccc(OC)cc2)CC1, which activation is on record?
Its activation is inactive: 21.6%.

Which activation does the source give for O=C1CCN(Cc2ccccc2)CC1 here?
The activation was inactive: 15.3%.

With CCOc1ccc(C)cc1CN(CCCl)CCCl as the molecule, how does the activation read?
The activation was inactive: -28.1%.

For COc1ccc(NC2CCN(CCc3ccccc3)CC2)c(OC)c1, which activation is on record?
Its activation is inactive: 30.1%.

Which activation does the source give for CCOC(=O)N1CCC(Nc2ccc(F)cc2)CC1 here?
Its activation is inactive: 21.9%.

With O=P1(N(CCCl)CCCl)SCCCS1 as the molecule, how does the activation read?
Its activation is inactive: 0.261%.

For CCCCOc1ccc(C(=O)NCC2(N3CCOCC3)CCCCC2)cc1, which activation is on record?
Its activation is inactive: -15.7%.

Which activation does the source give for O=C(NCC1(N2CCCCC2)CCCCC1)c1ccc(F)cc1 here?
Its activation is inactive: 26.5%.

For CCOC(=O)N1CCC(Nc2cccc(C)c2)CC1, which activation is on record?
The activation was inactive: -42.5%.

With COc1cc(C(=O)NCC2(N(C)C)CCCCC2)ccc1OC(F)F as the molecule, how does the activation read?
Its activation is inactive: -4.36%.

For O=C(NCC1(N2CCCCC2)CCCCC1)c1ccc(OC(F)F)cc1, which activation is on record?
Its activation is inactive: 2.04%.

With N#CC1(Nc2ccccc2)CCN(CCc2ccccc2)CC1 as the molecule, how does the activation read?
The activation was inactive: 16.7%.

With CCN1CCC(Nc2ccc(Cl)cc2)CC1 as the molecule, how does the activation read?
Its activation is inactive: 7.54%.

With O=C(NCC1(N2CCCCC2)CCCCC1)c1cccc([N+](=O)[O-])c1 as the molecule, how does the activation read?
The activation was inactive: 13.3%.

With CSc1ccc(C(=O)NCC2(N3CCOCC3)CCCCC2)cc1 as the molecule, how does the activation read?
Its activation is inactive: -5.18%.

Which activation does the source give for COc1cc(C(=O)NCC2(N3CCCCC3)CCCCC2)ccc1OC(F)F here?
Its activation is inactive: 1.86%.

Which activation does the source give for O=C(NCC1(N2CCOCC2)CCCCC1)c1cc(=O)[nH]c2ccccc12 here?
Its activation is inactive: -2.58%.

Which activation does the source give for CN1CCN(CCOC(=O)C(O)(c2ccccc2)c2ccccc2)CC1 here?
The activation was inactive: 19.8%.

With CC(C)c1ccc(C(=O)NCC2(N3CCOCC3)CCCCC2)cc1 as the molecule, how does the activation read?
Its activation is inactive: -4.72%.

Which activation does the source give for COc1ccc(NC2CCN(C(=O)OC(C)(C)C)CC2)cc1 here?
The activation was inactive: -20.9%.

For CC(C)c1ccc(NC2CCN(C(=O)OC(C)(C)C)CC2)cc1, which activation is on record?
The activation was inactive: -4.39%.

Which activation does the source give for CN(C)c1cccc(C(=O)NCC2(N3CCCCC3)CCCCC2)c1 here?
The activation was inactive: 24.1%.

For COc1ccc(CN(CCCl)CCCl)cc1Cl, which activation is on record?
The activation was inactive: 10.1%.

For O=C(NCC1(N2CCOCC2)CCCCC1)c1cc(F)c(F)cc1Cl, which activation is on record?
Its activation is inactive: -17.2%.

With COc1cc(OC)c(C(=O)NCC2(N(C)C)CCCCC2)cc1OC as the molecule, how does the activation read?
Its activation is inactive: 20.8%.

With CN1CCC(Nc2cccc(F)c2)CC1 as the molecule, how does the activation read?
Its activation is inactive: 14.2%.

For O=C(NCC1(N2CCCCC2)CCCCC1)c1cncc(Br)c1, which activation is on record?
Its activation is inactive: -15.9%.

For CCCOc1ccc(C(=O)NCC2(N(C)C)CCCCC2)cc1OC, which activation is on record?
The activation was inactive: -7.26%.
